Experimental findings from patent US5948635A, “Totally Synthetic Affinity Reagents” (University of North Carolina at Chapel Hill, priority 1995, dated 1999) are described below.

The target in this experiment is CaM (Homo sapiens, UniProt P0DP23). Nature of the experiment: Competition for binding of CaM-12.1 phage to CaM. The settings on record: preliminary experiments. Here is the method:
The binding properties of the CaM-12.1 TSAR were further examined in several ways. First, the ability of CaM-12.1 phage to bind other calcium-binding proteins was tested. […] Second, the ability of natural calmodulin binding peptides and proteins to compete for binding of the CaM-12.1 phage with CaM was tested. […] Third, the ability of a synthetic non-peptide CaM-antagonist, W7, (#681629; Calbiochem, San Diego, Calif.), was tested for its ability to compete for binding of CaM-12.1 to CaM. […] In summary: (1) CaM-12.1 binds CaM specifically, and not because it is a high-affinity Ca^2 +-binding protein; (2) CaM-12.1 binds CaM at a site partially overlapping or influenced, by the binding sites of CaM-dependentprotein kinase peptide, melittin and W7.

In the case of `CC[C@H](C)[C@H](NC(=O)CN)C(=O)NCC(=O)N[C@@H](C)C(=O)N[C@H](C(=O)N[C@@H](CC(C)C)C(=O)N[C@@H](CCCCN)C(=O)N[C@H](C(=O)N[C@@H](CC(C)C)C(=O)N[C@H](C(=O)N[C@H](C(=O)NCC(=O)N[C@@H](CC(C)C)C(=O)N1CCC[C@H]1C(=O)N[C@@H](C)C(=O)N[C@@H](CC(C)C)C(=O)N[C@H](C(=O)N[C@@H](CO)C(=O)N[C@@H](Cc1c[nH]c2ccccc12)C(=O)N[C@H](C(=O)N[C@@H](CCCCN)C(=O)N[C@@H](CCCNC(=N)N)C(=O)N[C@@H](CCCCN)C(=O)N[C@@H](CCCNC(=N)N)C(=O)N[C@@H](CCC(N)=O)C(=O)N[C@@H](CCC(N)=O)C(N)=O)[C@@H](C)CC)[C@@H](C)CC)[C@@H](C)O)[C@@H](C)O)C(C)C)C(C)C` [melittin], the “competition with CaM-12.1 for binding to CaM” value was “could compete”.
